Measurements taken from ChEMBL document CHEMBL3352430, “4-Aminopyridyl-based CYP51 inhibitors as anti-Trypanosoma cruzi drug leads with improved pharmacokinetic profile and in vivo potency” (J Med Chem, 2014).

Chains of the proteins cited; added tags and fusions are not shown.
UniProt P05177, whole entry: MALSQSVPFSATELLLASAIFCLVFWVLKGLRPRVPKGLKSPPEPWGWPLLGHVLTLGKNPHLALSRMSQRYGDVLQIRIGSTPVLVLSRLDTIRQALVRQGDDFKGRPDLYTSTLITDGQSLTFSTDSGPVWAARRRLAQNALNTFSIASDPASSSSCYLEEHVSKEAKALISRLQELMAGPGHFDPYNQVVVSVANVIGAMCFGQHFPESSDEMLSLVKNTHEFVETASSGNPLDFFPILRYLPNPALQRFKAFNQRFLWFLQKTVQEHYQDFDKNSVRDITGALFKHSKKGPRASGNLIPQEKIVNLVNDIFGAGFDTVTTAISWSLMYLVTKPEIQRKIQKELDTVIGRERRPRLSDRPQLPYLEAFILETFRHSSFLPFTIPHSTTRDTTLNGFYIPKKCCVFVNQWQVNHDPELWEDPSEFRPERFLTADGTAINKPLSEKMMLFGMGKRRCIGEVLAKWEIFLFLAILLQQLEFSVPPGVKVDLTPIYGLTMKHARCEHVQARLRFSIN
UniProt P11712, whole entry: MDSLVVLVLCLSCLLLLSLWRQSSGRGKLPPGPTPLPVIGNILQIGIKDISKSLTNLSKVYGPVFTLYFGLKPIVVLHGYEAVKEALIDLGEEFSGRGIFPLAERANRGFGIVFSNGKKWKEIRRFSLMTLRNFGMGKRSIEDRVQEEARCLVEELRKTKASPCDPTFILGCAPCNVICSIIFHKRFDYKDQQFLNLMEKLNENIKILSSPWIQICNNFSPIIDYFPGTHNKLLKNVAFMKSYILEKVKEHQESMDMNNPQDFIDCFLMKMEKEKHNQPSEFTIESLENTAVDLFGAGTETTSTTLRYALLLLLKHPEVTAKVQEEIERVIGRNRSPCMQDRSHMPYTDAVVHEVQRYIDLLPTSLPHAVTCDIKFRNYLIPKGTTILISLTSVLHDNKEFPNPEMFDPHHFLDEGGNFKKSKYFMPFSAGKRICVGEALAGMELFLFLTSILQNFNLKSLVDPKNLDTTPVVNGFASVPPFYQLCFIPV
UniProt P10635, whole entry: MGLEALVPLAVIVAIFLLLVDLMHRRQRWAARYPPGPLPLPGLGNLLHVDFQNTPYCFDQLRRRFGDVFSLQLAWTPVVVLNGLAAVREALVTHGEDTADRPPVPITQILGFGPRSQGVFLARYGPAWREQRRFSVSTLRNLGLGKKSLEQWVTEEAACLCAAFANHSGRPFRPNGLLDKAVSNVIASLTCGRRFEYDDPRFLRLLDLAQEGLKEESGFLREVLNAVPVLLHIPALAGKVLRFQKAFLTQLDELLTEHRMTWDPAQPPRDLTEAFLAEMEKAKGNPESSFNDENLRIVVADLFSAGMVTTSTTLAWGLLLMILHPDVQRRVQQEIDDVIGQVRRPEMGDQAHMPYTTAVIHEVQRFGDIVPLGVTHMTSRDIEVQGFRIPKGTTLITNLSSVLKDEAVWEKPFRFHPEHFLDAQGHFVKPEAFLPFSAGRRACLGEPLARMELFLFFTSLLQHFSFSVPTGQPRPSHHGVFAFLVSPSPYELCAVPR
UniProt P08684, whole entry: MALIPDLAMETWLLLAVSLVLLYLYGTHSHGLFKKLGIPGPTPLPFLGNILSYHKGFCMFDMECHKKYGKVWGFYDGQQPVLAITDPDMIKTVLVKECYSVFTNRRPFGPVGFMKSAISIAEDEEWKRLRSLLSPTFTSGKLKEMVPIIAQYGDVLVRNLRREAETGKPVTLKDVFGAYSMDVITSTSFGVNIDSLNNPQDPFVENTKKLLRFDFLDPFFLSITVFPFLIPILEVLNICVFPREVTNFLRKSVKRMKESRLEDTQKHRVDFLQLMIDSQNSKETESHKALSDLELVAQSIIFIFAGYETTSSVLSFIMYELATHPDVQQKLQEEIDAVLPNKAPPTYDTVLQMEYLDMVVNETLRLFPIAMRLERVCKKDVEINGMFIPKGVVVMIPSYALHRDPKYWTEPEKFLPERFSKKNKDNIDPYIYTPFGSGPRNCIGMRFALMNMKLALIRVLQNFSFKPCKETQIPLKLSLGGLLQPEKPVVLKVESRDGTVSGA

Tests used:
Assay type in all cases: ADME
Cytochrome P450 1A2 = Cytochrome P450 1A2 (Homo sapiens, UniProt P05177); assay: Inhibition of CYP1A2 in human liver microsomes at 1 uM
Cytochrome P450 2C9 = Cytochrome P450 2C9 (Homo sapiens, UniProt P11712); assay: Inhibition of CYP2C9 in human liver microsomes at 1 uM
Cytochrome P450 2D6 = Cytochrome P450 2D6 (Homo sapiens, UniProt P10635); assay: Inhibition of CYP2D6 in human liver microsomes at 1 uM
Cytochrome P450 3A4 = Cytochrome P450 3A4 (Homo sapiens, UniProt P08684); assay: Inhibition of CYP3A4 in human liver microsomes at 1 uM
Liver microsome = assay: Half life in human liver microsomes

Question: How did the “inhibition (INH)” value (Cytochrome P450 1A2) turn out when `O=C(N[C@H](Cc1c[nH]c2ccccc12)C(=O)Nc1ccncc1)c1ccc(-c2ccc(OCc3ccc(F)cc3)c(F)c2)cc1F` was run?
Answer: -14%

Question: What about the “inhibition (INH)” value (Cytochrome P450 2C9) of the same molecule?
Answer: 89%

Question: What about the “inhibition (INH)” value (Cytochrome P450 2D6) of the same molecule?
Answer: 19%

Question: What about the “inhibition (INH)” value (Cytochrome P450 3A4) of the same molecule?
Answer: 48%

Question: Which results are given for `O=C(N[C@H](Cc1c[nH]c2ccccc12)C(=O)Nc1ccncc1)c1ccc(N2CCN(c3cccc(Cl)c3)CC2)cc1F`?
Answer: t1/2 (Liver microsome): 6 min; inhibition (INH) (Cytochrome P450 1A2): 6%; inhibition (INH) (Cytochrome P450 2C9): 95%; inhibition (INH) (Cytochrome P450 2D6): 57%; inhibition (INH) (Cytochrome P450 3A4): 85%

Question: With `CC(=O)N1CCN(c2ccc(C(=O)N[C@H](Cc3c[nH]c4ccccc34)C(=O)Nc3ccncc3)c(F)c2)CC1` as the molecule, how does the “inhibition (INH)” value (Cytochrome P450 1A2) read?
Answer: -13%

Question: And the “inhibition (INH)” value (Cytochrome P450 2C9)?
Answer: 76%

Question: What about the “inhibition (INH)” value (Cytochrome P450 2D6) of the same molecule?
Answer: 14%

Question: What about the “inhibition (INH)” value (Cytochrome P450 3A4) of the same molecule?
Answer: 67%
